Test results published in patent US9737075B2, “Synergistic benzoxaborole-containing anti-fungicidal composition” (The Penn State Research Foundation, priority 2015, dated 2017).

Assays:
Alternaria solani = test: Broth microdilution MIC of individual antifungals; details: 72 h, read-out: Independent MIC
Rhizopus sp. = test: Broth microdilution MIC of individual antifungals; details: 72 h, read-out: Independent MIC
[1] = tested on: Colletotrichum orbiculare; test: Broth microdilution MIC of individual antifungals; format: cell-based; details: 72 h, read-out: Independent MIC
Botrytis cinerea 10-1728 = test: Broth microdilution MIC of individual antifungals; format: cell-based; details: Botrytis cinerea, 101728, 72 h, read-out: Independent MIC
Aspergillus flavus = test: Broth microdilution MIC of individual antifungals; details: 72 h, read-out: Independent MIC
Fusarium verticillioides = test: Broth microdilution MIC of individual antifungals; format: cell-based; details: 72 h, read-out: Independent MIC
Pythium aphanodermatum = test: Broth microdilution MIC of individual antifungals; details: 72 h, read-out: Independent MIC
Aspergillus niger = test: Broth microdilution MIC of individual antifungals; details: 72 h, read-out: Independent MIC
[2] = tested on: two dozen different fungal organisms; test: Broth microdilution MIC, summary over the organisms examined; format: cell-based; details: read-out: MIC values
Sclerotinia homoeocarpa = test: Broth microdilution MIC of individual antifungals; details: Clarireedia homoeocarpa, 72 h, read-out: Independent MIC
Penicillium chrysogenum = test: Broth microdilution MIC of individual antifungals; format: cell-based; details: 72 h, read-out: Independent MIC
Stachybotrys chartarum = test: Broth microdilution MIC of individual antifungals; format: cell-based; details: 72 h, read-out: Independent MIC
Aureobasidium pullulans = test: Broth microdilution MIC of individual antifungals; format: cell-based; details: 72 h, read-out: Independent MIC
[3] = tested on: Fusarium oxysporum f. sp. lycopersici; test: Broth microdilution MIC of individual antifungals; format: cell-based; details: 72 h, read-out: Independent MIC
Botrytis cinerea B17 = test: Broth microdilution MIC of individual antifungals; format: cell-based; details: B17, 72 h, read-out: Independent MIC
Phytophthora pini = test: Broth microdilution MIC of individual antifungals; format: cell-based; details: 72 h, read-out: Independent MIC
Aspergillus fumigatus = test: Broth microdilution MIC of individual antifungals; format: cell-based; details: 72 h, read-out: Independent MIC
Rhizoctonia solani = test: Broth microdilution MIC of individual antifungals; format: cell-based; details: 72 h, read-out: Independent MIC
Candida albicans = test: Broth microdilution MIC of individual antifungals; format: cell-based; details: 72 h, read-out: Independent MIC
Mucor sp. = test: Broth microdilution MIC of individual antifungals; format: cell-based; details: 72 h, read-out: Independent MIC
Magnaporthe grisea = test: microbe, parasite or virus in culture; format: cell-based; details: Pyricularia oryzae, 72 h, read-out: Independent MIC
[4] = tested on: Mycosphaerella zeae-maydis; test: Broth microdilution MIC of individual antifungals; details: Didymella maydis, 72 h, read-out: Independent MIC
Fusarium oxysporum ST33 = test: Broth microdilution MIC of individual antifungals; format: cell-based; details: ST33, 72 h, read-out: Independent MIC
[5] = tested on: Fusarium solani f. sp. pisi (MP VI); test: Broth microdilution MIC of individual antifungals; details: 72 h, read-out: Independent MIC

OB1OCc2ccccc21 [BO, 2-(hydroxymethyl)benzene boronic acid hemiester] was tested, and the MIC (Alternaria solani) was 2 to 4 µg/mL, the MIC (Rhizopus sp.) was 2 to 8 µg/mL and the MIC [1] was 1.56 µg/mL. It also gave an MIC (Botrytis cinerea 10-1728) of 1 to 2.5 µg/mL, an MIC (Aspergillus flavus) of 2 to 5 µg/mL and an MIC (Fusarium verticillioides) of 1 to 4 µg/mL. The MIC (Pythium aphanodermatum) was 4 to 8 µg/mL, the MIC (Aspergillus niger) was 2 to 2.5 µg/mL and the MIC [2] was at most 4 µg/mL. For the same compound, the MIC (Sclerotinia homoeocarpa) was 2 to 8 µg/mL, the MIC (Penicillium chrysogenum) was 3.12 µg/mL and the MIC (Stachybotrys chartarum) was 0.5 to 2 µg/mL. It also gave an MIC (Aureobasidium pullulans) of 1 to 2 µg/mL, an MIC [3] of 1 to 2 µg/mL and an MIC (Botrytis cinerea B17) of 1 to 4 µg/mL. The MIC (Phytophthora pini) was 0.25 µg/mL, the MIC (Aspergillus fumigatus) was 0.5 to 1 µg/mL and the MIC (Rhizoctonia solani) was 6.25 to 12.5 µg/mL. The MIC (Candida albicans) was 1 µg/mL, the MIC (Mucor sp.) was 0.5 to 1 µg/mL and the MIC (Magnaporthe grisea) was 1.56 to 2 µg/mL (≈ 11.6 to 14.9 µM). It also gave an MIC [4] of 2 to 8 µg/mL, an MIC (Fusarium oxysporum ST33) of 1 to 2 µg/mL and an MIC [5] of 2 to 6 µg/mL.

In brackets after ≈: the same amount, converted by molar mass.
